Series [1] has as its target T1, hPXR (Homo sapiens (Human), UniProt O75469). The experiment in a line: cell-based hPXR antagonistic assay. To be noted: read-out: Antagonist (IC50/μM); cell-based hPXR antagonistic assay with rifampicin (5 μM).
In series [2] the target is T1, hPXR. The experiment in a line: cell-based hPXR agonistic assay. To be noted: for Agonist (% activation at 10 μM): rifampicin at 10 μM as 100% activation, DMSO (0.3%) as 0%; for EC50: read-out: Agonist (EC50/μM), cell-based hPXR agonistic assay.
Series [3] deals with T1, hPXR. The series can be described thus: cell-based hPXR inverse agonistic assay. To be noted: read-out: Inverse agonist (IC50/μM).
For series [4], the target named is T1, hPXR. The series can be described thus: hPXR binding assay. To be noted: read-out: Binding (IC50/μM).

By UniProt entry, the sequences of proteins in these tests, tags left out.
UniProt O75469, whole entry: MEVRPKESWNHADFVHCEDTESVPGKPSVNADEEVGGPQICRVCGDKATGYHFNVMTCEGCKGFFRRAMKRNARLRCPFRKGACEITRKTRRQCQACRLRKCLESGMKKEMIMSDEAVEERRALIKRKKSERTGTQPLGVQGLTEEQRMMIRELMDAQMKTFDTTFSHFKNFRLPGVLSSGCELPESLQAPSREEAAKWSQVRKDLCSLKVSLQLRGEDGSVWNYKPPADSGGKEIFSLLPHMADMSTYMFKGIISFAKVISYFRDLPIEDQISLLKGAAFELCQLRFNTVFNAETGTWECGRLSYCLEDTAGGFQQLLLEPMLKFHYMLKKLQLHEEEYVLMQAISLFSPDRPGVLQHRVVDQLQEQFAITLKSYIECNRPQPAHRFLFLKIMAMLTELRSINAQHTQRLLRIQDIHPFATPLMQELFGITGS

Take `COc1ccc(OC)c(-n2nnc(C(=O)Nc3cc(C(C)(C)C)ccc3OCC(=O)O)c2C)c1`: the IC50 in series [1] is over 30 µM. Besides, in series [2], the “Agonist (% activation at 10 μM)” value was “(81 ± 9)%” and the EC50 was 10.7 µM. Further, the IC50 in series [3] is over 30 µM.

On to `CCC(C)Oc1ccc(C(C)(C)C)cc1C(=O)Nc1nnn(-c2cc(OC)ccc2OC)c1C` (stereo not drawn), for which the IC50 in series [1] was 12 µM; in series [4], 0.03 µM; in series [3] it was over 30 µM. Moreover, the “Agonist (% activation at 10 μM)” value in series [2] is listed as “(58 ± 3)%”. In addition, in series [2], the EC50 was 0.0094 µM.

On to `COc1ccc(OC)c(-n2nnc(C(=O)Nc3cc(OCCOCCOCCOCCNC(=O)CCC4=[N+]5C(=Cc6c(C)cc(C)n6[B-]5(F)F)C=C4)cc(C(C)(C)C)c3)c2C)c1`, for which the IC50 in series [1] was 0.7 µM; in series [4], over 30 µM; in series [3], over 30 µM. Further, the EC50 in series [2] was over 30 µM.

Take `CCCC(CC)Oc1ccc(C(C)(C)C)cc1C(=O)Nc1nnn(-c2cc(OC)ccc2OC)c1C` (stereo not drawn): the IC50 in series [1] was 4.49 µM; in series [4] it was 0.0038 µM; in series [3] it was over 30 µM. Also, in series [2], the “Agonist (% activation at 10 μM)” value was “(54 ± 11)%”. Moreover, the EC50 in series [2] worked out at 0.0014 µM.

These data come from patent US20250282736A1.
